Results from patent US6492381B1, “Tricyclic carbamate compounds useful for inhibition of G-protein function and for treatment of proliferative diseases” (Schering Corp., priority 1993, dated 2002).

Amino acid sequences for entries named in this document (tags omitted).
UniProt Q02293, whole entry: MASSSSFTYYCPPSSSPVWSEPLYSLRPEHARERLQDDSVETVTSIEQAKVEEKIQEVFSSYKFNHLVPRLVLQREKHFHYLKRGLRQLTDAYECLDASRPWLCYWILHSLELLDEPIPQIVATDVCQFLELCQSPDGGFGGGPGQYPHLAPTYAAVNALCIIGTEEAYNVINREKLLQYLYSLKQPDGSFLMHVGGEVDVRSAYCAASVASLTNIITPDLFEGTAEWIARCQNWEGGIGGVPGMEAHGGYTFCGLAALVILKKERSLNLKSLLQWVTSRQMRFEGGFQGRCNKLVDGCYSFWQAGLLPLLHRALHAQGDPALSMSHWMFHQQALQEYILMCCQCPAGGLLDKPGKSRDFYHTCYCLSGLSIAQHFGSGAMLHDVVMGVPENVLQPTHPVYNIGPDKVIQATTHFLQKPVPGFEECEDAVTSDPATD

What was measured:
[1] = molecular target: farnesyl protein transferase (FPT) (Rattus norvegicus, UniProt Q02293+Q04631); experiment: In vitro enzyme assay: inhibition of farnesyl protein transferase; conditions: read-out: FPT IC50; Ras-CVLS farnesylation, partially purified rat brain FPT
[2] = tested on: Ras-CVLS processing in COS monkey kidney cells; experiment: Cell-based assay: Ras-CVLS processing in transfected COS cells (immunoblot); conditions: read-out: COS IC50; inhibition of Ras-CVLS processing in Ras-transfected COS cells
Text: 2. Cell-Based Assay: Transient expression of val^12-Ha-Ras-CVLS and val^12-Ha-Ras-CVLL in COS monkey kidney cells: Effect of farnesyl protein transferase inhibitors on Ras processing and on disordered cell growth induced by transforming Ras.
COS monkey kidney cells were transfected by electroporation with the plasmid pSV-SPORT (Gibco/BRL) containing a cDNA insert encoding either Ras-CVLS or Ras-CVLL, leading to transient overexpression of a Ras substrate for either farnesyl protein transferase or geranylgeranyl protein transferase I, respectively (see above). […]
Membranes were blocked by incubation overnight at 4° C. in PBS containing 2.5% dried milk and 0.5% Tween-20 and then incubated with a Ras-specific monoclonal antibody, Y13-259 (Furth, M. E., et al., (1982), Monoclonal antibodies to the p21 products of the transforming gene of Harvey murine sarcome virus and of the cellular ras gene family, J. Virol. 43: 294-304), in PBS containing 1% fetal calf serum for one hour at room temperature. […] The presence of processed and unprocessed Ras-CVLS or Ras-CVLL was detected using a calorimetric peroxidase reagent (4-chloro-1-naphthol) as described by the manufacturer (Bio-Rad).

SMILES | IC50 [1] [µM] | IC50 [2] [µM]
O=C(Oc1cccnc1)N1CCC(C2c3ccc(Cl)cc3C=Cc3c(Cl)ccnc32)CC1 (centres unmarked) | 0.53 | 
CCOC(=O)N1CCC(C2c3ccc(Cl)cc3CCc3cc([N+](=O)[O-])cnc32)CC1 (centres unmarked) | 12.9 | 
CCOC(=O)N1CCC(C2c3ccc(Cl)cc3C=Cc3cc([N+](=O)[O-])cnc32)CC1 (centres unmarked) | 8.2 | 
O=C(Oc1ccc(Br)cc1)N1CCC(=C2c3ccc(Cl)cc3CCc3cccnc32)CC1 | 0.2 | 17
